Experimental data: patent US20260028336A1 (Arcus Biosciences, Inc., priority 2022, published 2026)

Tested on: Jurkat cells
Assay: IL-2 secretion assay in CD3/CD28-activated Jurkat cells (AlphaLISA)
Assay type: cell-based
Details: Homo sapiens, 24 h, read-out: IL-2 Secretion (EC50)
Method: Certain compounds were also evaluated in an IL-2 secretion assay. On the day of the assay, a 16 point, 1:2 master serial dilution of each compound was prepared in Opti-MEM to span a final concentration range of 10 μM to 300 pM. Assays were set up in CORNING® tissue culture-treated 384-well microplates containing 60 nL of each dilution. […] 50,000 cells/well and added to the compound plates. After a short spin (1200 rpm for 1 min), the plates were incubated at 37° C. for 1 hour. The cells were activated by adding 15 μL of IMMUNOCULT™ Human CD3/CD28 T Cell Activator ([…] Technologies) diluted in Opti-MEM. […] The AiphaLISA signal was measured using an EnVision plate reader (PerkinElmer). EC50 values were determined by fitting the data to a standard 4-parameter logistic equation.

Row | SMILES | EC50
1 | C[C@H]1CCCN(Cc2cc3c(C(F)(F)F)cn(-c4cccc([C@]5(c6nncn6C)C[C@@H](C)C5)c4)c(=O)c3[nH]2)C1 [Example 106, 4-cyclopropyl-2-{[(3S,5S)-3,5-difluoropiperidin-1-yl]methyl}-6-{3-[(1r,3s)-3-methyl-1-(4-methyl-4H-1,2,4-triazol-3-yl)cyclobutyl]phenyl}-1H,6H,7H-pyrrolo[2,3-c]pyridin-7-one] | < 100 nM
2 | CC1CC(c2cccc(-n3cc(C(F)(F)F)c4cc(CN5CCC[C@H](C)C5)[nH]c4c3=O)c2)(c2nncn2C)C1 (stereo partly drawn) [Example 104, 6-{3-[3-methyl-1-(4-methyl-4H-1,2,4-triazol-3-yl)cyclobutyl]phenyl}-2-{[(3S)-3-methylpiperidin-1-yl]methyl}-4-(trifluoromethyl)-1H,6H,7H-pyrrolo[2,3-c]pyridin-7-one] | < 100 nM
